Measured values: US7326684B2, “Peptides for enhancing resistance to microbial infections” (priority 2002, dated 2008)

What was measured:
[1] = system: non-opioid receptors for β-endorphin on T lymphocytes; experiment: Competition of unlabeled ligands with [125I]β-endorphin binding to T lymphocytes; settings: read-out: Ki, inhibition of [125I]β-endorphin binding; human T lymphocytes, 1 nM [125I]β-endorphin, 4° C.
[2] = system: T lymphocytes from the blood of healthy donors; experiment: Con A-induced proliferation of T lymphocytes; format: cell-based, human; settings: with naloxone
[3] = system: non-opioid receptors for β-endorphin on T lymphocytes; settings: read-out: Kd of labeled peptide binding to T lymphocytes; human T lymphocytes, Scatchard, in the absence of naloxone
[4] = system: high-affinity (non-opioid) β-endorphin receptors on murine peritoneal macrophages; settings: read-out: Ki, competition with [125I]β-endorphin, Zav'yalov et al. 1996; cited from earlier work
Immunogenicity in mice = settings: mice as model animals

## CC(C)C[C@H](NC(=O)[C@H](CS)NC(=O)[C@@H](NC(=O)[C@H](CC(C)C)NC(=O)[C@@H](N)CO)[C@@H](C)O)C(=O)N[C@H](C(=O)N[C@@H](CCCCN)C(=O)NCC(=O)N[C@@H](Cc1ccccc1)C(=O)N[C@@H](Cc1ccc(O)cc1)C(=O)O)C(C)C [immunorphin]
[1]
  Ki: 0.6 nM
[2]
  Stimulating effect on T lymphocyte proliferation in presence of naloxone: not inhibited by naloxone
[3]
  Kd: 7 nM
[4]
  Ki: 2.5 nM
Immunogenicity in mice
  Immunogenicity: No immunogenicity
